Experimental data taken from ChEMBL document CHEMBL1135488, “Prediction of volume of distribution values in humans for neutral and basic drugs using physicochemical measurements and plasma protein binding data” (J Med Chem, 2002).

Test: Ionisation constant (pKa)
Assay type: physicochemical

| SMILES | pKa |
| --- | --- |
| CN(C)CCC(c1ccc(Cl)cc1)c1ccccn1 (configuration not stated) [CHLORPHENIRAMINE] | 9.26 |
| COc1cc(Cc2cnc(N)nc2N)cc(OC)c1OC [TRIMETHOPRIM] | 7.07 |
